Reference: patent US20160368961A1 (GLYTECH, published 2016)

The chains behind the UniProt entries cited, without tags or fusion partners. Where a name states a change or a piece, a line headed by the entry shows the natural chain unless it says otherwise.
UniProt P30874: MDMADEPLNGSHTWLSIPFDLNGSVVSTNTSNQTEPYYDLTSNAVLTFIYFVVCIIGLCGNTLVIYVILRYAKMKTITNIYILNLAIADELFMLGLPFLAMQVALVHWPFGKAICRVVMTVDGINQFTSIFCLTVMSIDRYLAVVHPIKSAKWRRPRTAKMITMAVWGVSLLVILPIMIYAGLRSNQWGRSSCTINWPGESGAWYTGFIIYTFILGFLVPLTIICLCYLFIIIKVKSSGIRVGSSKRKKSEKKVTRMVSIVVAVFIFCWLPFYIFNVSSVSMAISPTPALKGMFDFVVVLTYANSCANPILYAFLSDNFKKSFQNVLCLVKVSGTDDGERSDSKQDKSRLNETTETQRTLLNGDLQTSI
UniProt P32745: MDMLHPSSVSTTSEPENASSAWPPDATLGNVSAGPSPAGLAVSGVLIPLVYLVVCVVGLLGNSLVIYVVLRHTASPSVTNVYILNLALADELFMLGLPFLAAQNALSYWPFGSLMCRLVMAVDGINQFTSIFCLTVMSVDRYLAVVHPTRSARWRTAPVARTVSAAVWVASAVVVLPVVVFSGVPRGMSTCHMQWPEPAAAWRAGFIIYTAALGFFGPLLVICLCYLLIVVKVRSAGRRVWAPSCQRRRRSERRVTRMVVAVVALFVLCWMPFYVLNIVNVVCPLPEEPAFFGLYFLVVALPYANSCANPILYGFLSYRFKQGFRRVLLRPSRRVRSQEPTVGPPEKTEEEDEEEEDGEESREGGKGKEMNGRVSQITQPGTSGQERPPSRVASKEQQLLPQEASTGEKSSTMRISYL
UniProt P35346: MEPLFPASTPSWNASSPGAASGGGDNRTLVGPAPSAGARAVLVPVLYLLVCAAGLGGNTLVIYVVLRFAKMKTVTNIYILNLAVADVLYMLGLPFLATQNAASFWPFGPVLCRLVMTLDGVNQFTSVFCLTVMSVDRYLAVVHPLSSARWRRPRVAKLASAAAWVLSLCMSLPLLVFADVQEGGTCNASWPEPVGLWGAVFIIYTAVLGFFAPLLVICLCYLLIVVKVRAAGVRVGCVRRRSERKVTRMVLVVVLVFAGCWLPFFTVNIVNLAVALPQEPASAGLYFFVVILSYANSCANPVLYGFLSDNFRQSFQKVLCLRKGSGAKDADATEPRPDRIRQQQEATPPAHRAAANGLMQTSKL

What was measured:
[1] = biological target: T1, Somatostatin receptor SSTR2 (human recombinant, CHO-K1 cells) (human, UniProt P30874 1-369); experiment: competitive radioligand binding ([125I]Tyr11-SRIF14), human SSTR2 CHO-K1 membranes
T1 construct: whole, on cells; Used as a receptor membrane sample from recombinant cells

[2] = biological target: T2, Somatostatin receptor SSTR3 (human recombinant, CHO-K1 cells) (human, UniProt P32745 1-418); experiment: competitive radioligand binding ([125I]Tyr11-SRIF14), human SSTR3 CHO-K1 membranes
T2 construct: whole, on cells; Used as a receptor membrane sample from recombinant cells

[3] = biological target: T3, Somatostatin receptor SSTR5 (human recombinant, Chem-1 cells) (human, UniProt P35346 1-364); experiment: competitive radioligand binding ([125I]Tyr11-SRIF14), human SSTR5 Chem-1 membranes
T3 construct: whole, on cells; Used as a receptor membrane sample from recombinant cells

Ki [1] | IC50 [3] | IC50 [1] | Binder | further results
 |  | 0.336 nM | CAGCKNFFWKTFTSC (disialo sugar chain attached Cys added at the N-terminal side of SRIF14; disulfide bond Cys17-Cys28 (SRIF28 numbering)) [C(disialo)-SRIF14] | IC50 [2]: 4.62 nM
 | 2.29 nM |  | CAGCKNFFWKTFTSC (disialo sugar chain attached Cys at the N-terminus joined to Ala15 of SRIF14 through a C12 linker (12-aminododecanoic acid, -NH-(CH2)11-CO-); disulfide bond Cys17-Cys28 (SRIF28 numbering), Contains a non-amino-acid linker inside the chain) [C(disialo)-C12 linker-SRIF14] | 

The next lines start with the binder.

Binder | Ki [1] | IC50 [3] | IC50 [1] | further results
SANSCPAMCPRERKAGCKNFFWKTFTSC (disialo sugar chain attached Cys at positions 5 and 9; disulfide bond Cys17-Cys28) [N5C(disialo).A9C(disialo)-SRIF28] | 0.424 nM |  |  | 
CANSNPAMAPRECKAGCKNFFWKTFTSC (disialo sugar chain attached Cys at positions 1 and 13; disulfide bond Cys17-Cys28) [S1C(disialo).R13C(disialo)-SRIF28] | 3.33 nM |  |  | 
SANSNPAMAPRERKAGCKCFFWKTFTSC (disialo sugar chain attached Cys at position 19; disulfide bond Cys17-Cys28) [N19C(disialo)-SRIF28] |  |  |  | Ki [2]: 0.503 nM
SANSNPAMAPRERKAGCKNFFWKTFTSCTC (-W-disialo sugar chain attached Cys added after Cys28 (glycosylated Cys at position 30); disulfide bond Cys17-Cys28, The text calls residue 29 'W, any amino acid') [30C(disialo)-SRIF28] |  | 1.36 nM | 0.513 nM | 
